# Results taken from patent publication US8017791B2.
# By UniProt entry, the sequences of proteins in these tests, tags left out. Residues count along the entry.
# UniProt P23977, whole entry: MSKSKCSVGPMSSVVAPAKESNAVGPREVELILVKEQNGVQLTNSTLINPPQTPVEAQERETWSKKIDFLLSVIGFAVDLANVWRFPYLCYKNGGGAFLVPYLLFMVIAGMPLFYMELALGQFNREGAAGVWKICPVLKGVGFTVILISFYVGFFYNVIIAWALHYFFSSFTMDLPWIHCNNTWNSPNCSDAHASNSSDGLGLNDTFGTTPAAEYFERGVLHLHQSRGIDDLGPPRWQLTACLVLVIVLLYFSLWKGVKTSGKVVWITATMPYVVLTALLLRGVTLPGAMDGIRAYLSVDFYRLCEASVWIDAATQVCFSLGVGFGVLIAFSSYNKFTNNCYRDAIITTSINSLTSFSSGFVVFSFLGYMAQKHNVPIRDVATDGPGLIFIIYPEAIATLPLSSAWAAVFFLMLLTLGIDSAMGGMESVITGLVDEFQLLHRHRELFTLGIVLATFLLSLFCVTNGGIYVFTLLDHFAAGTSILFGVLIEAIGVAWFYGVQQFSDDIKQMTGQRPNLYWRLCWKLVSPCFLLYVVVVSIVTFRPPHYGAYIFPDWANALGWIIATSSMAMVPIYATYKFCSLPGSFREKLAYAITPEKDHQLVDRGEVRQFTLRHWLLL
# UniProt P31652, whole entry: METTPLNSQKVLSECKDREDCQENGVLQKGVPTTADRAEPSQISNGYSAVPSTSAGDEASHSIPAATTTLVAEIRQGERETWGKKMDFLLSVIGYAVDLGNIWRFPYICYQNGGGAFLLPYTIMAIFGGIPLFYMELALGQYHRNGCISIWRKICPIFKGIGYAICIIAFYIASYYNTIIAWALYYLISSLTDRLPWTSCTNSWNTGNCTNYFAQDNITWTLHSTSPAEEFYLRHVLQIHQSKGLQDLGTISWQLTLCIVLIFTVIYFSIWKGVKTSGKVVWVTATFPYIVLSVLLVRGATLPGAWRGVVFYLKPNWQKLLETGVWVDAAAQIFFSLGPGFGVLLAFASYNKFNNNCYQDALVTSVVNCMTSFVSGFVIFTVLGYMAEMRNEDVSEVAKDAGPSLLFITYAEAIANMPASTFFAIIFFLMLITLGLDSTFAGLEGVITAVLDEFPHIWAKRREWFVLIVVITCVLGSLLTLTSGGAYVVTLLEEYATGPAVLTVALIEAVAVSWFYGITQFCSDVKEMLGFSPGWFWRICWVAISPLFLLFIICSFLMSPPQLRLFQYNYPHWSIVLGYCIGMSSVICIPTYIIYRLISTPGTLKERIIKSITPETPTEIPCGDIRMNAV
# UniProt Q9WTR4, 1-597: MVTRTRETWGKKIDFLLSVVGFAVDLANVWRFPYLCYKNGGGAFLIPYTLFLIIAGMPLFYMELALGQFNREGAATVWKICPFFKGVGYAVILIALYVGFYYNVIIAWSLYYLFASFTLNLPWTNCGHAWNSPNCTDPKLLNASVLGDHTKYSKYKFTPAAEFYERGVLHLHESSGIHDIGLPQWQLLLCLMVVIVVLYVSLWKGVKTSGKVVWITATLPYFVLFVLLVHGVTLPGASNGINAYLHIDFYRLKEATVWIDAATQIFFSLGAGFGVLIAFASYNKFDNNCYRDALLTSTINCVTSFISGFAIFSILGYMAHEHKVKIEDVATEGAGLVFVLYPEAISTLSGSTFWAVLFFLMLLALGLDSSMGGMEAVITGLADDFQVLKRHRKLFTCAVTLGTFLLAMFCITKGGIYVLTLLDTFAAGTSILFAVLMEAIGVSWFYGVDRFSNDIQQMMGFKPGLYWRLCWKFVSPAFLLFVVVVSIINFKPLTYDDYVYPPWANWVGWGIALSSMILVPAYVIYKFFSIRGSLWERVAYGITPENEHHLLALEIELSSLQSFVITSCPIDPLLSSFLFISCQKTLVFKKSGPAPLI
# Experiments:
# [1] = biological target: T1, DAT (Rattus norvegicus, UniProt P23977); experiment: Inhibition of [3H]WIN 35,428 binding to DAT; details: read-out: DAT binding, IC50, [3H]Win 35,428
# [2] = biological target: T2, SERT (Rattus norvegicus, UniProt P31652); experiment: Inhibition of [3H]citalopram binding to SERT; details: read-out: SERT binding, IC50 [3H]citalopram; Table 5
# [3] = biological target: NET (Rattus norvegicus, UniProt Q9WTR4); experiment: Inhibition of [3H]nisoxetine binding to NET; details: read-out: NET binding, IC50 [3H]nisoxetine; Table 5
# [4] = biological target: T1, DAT; experiment: Inhibition of [3H]DA uptake by DAT into rat striatal synaptosomes; type: biochemical; details: read-out: DAT uptake, IC50 [3H]DA; Table 5
# [5] = biological target: T2, SERT; experiment: SERT uptake inhibition, [3H]5-HT; type: biochemical; details: read-out: SERT IC50, uptake inhibition value; Table 5, SERT column, footnote b: Uptake inhibition values
# [6] = biological target: NET (Rattus norvegicus); experiment: NET uptake inhibition, [3H]NE; type: biochemical; details: read-out: NET IC50, uptake inhibition value; Table 5, NET column, footnote b: Uptake inhibition values
SMILES,IC50 [1] [nM],IC50 [2] [nM],IC50 [3] [nM],IC50 [4] [nM],IC50 [5] [nM],IC50 [6] [nM]
"Fc1ccc(CNC2CCC(COC(c3ccccc3)c3ccccc3)OC2)cc1 (single isomer, unassigned) [52]",162,> 10000,1440,165,,
"Fc1ccc(CNC2CCC(OC(c3ccccc3)c3ccccc3)OC2)cc1 (single isomer, unassigned) [63]",420,,,158,1490,1490
"Fc1ccc(CNC2CCC(OC(c3ccccc3)c3ccccc3)OC2)cc1 (single isomer, unassigned) [64]",296,2440,255,,,
Fc1ccc(CN[C@H]2CC[C@@H](CNC(c3ccccc3)c3ccccc3)OC2)cc1 (relative stereo),398,4400,3430,215,,
"Fc1ccc(CNC2CCC(COC(c3ccccc3)c3ccccc3)OC2)cc1 (single isomer, unassigned) [48]",80.4,> 10000,1330,104,,
